# Antibody variant affinities, Ab-14 light chain, assay B

Values reported by Li et al. 2023, doi:10.1038/s41467-023-39022-2 (FLAb copy).

Binding partner: SARS-CoV-2 spike HR2 peptide, sequence PDVDLGDISGINAS.

Each scFv is VH, a 15-residue (Gly4Ser)3 linker, VL, as in the parent Ab-14, and differs from it in the CDRs of the light chain only.
VH: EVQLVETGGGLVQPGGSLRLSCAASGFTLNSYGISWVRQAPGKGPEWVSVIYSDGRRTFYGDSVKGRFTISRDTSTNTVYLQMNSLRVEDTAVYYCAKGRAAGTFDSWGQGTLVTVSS
VL: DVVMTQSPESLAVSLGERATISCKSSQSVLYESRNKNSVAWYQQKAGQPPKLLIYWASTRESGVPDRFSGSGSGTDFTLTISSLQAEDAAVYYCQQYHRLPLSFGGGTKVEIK

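The starting antibody came from a phage panning campaign against this peptide. Designed CDR sequences, proposed from the first random library and measured here. Group labels follow the data file (Ctrl: baseline library sampled from a position-specific scoring matrix, with some repeated check sequences; GP: Gaussian process model; HC: hill climbing; a sequence that several methods proposed may carry one label only). AlphaSeq pools MATa yeast showing the antibodies with MATalpha yeast showing the peptide. Mating (16 h, 30 °C) was followed by selection of diploids and sequencing of their barcodes. A regression on co-assayed BCL2-family reference pairs converts the normalised counts of each replicate to an apparent Kd. The assay was run in six technical replicates.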

Variants are written as CDR1, CDR2 and CDR3 of the light chain (limits as in the source). Parent: KSSQSVLYESRNKNSVA, WASTRES, QQYHRLPLS. Values are log10 of the apparent Kd in nM; lower means stronger binding. An entry "n.d." has no value in the source: the pair was not observed among the diploids in that replicate. This suggests poor binding but is not conclusive.

CDR-L1,CDR-L2,CDR-L3,group,"log10 Kd, replicates",control signals
KSSQSVIYESRNKNSVA,WASTREA,QQYHRLPLS,Ctrl,n.d. / 2.33 / 2.66 / n.d. / 2.40 / n.d.,0 of 18
KFSMSGLYEQSNKNSVA,WASIRES,QQYHRLPLS,Ctrl,0.83 / 0.81 / 0.53 / 0.70 / 0.50 / 0.72,2 of 18 (2.15)
KLSQSVLMESRNKNSVA,RASTRES,QQYHRLPLS,Ctrl,0.43 / 0.74 / 0.54 / 0.36 / 0.71 / 0.58,1 of 18 (3.19)
KVQQHVLYESANKNSVA,SASTRES,QQYHRLPLS,Ctrl,0.09 / -0.03 / -0.09 / -0.21 / -0.03 / 0.12,0 of 18
KFQQDVLYESRNKNSVA,WASTRES,QQYHRLPLS,Ctrl,0.80 / 0.93 / 0.95 / 0.99 / 0.33 / 0.91,0 of 18
KSSQSKLYESRSKNSVA,WASTRES,QQYHRLPLS,Ctrl,n.d. / n.d. / n.d. / n.d. / n.d. / n.d.,0 of 18
KSSQSVLYESRNKNSVC,NASTRES,QQYHRLPFS,Ctrl,0.18 / 0.48 / 0.40 / 0.34 / 0.32 / 0.57,0 of 18
KSSQSVLDESWNLNSVA,WASTRES,QQIHRLPLS,Ctrl,n.d. / 1.81 / n.d. / 4.59 / 2.59 / 2.38,1 of 18 (1.67)
HSSQSVLYESLNKNSVA,WASTRES,QQYHRLPLS,Ctrl,1.71 / 1.59 / 1.51 / 0.99 / 1.22 / 1.13,0 of 18
KSSQSVLYESFNKNSVA,WASTRES,QDYHRLPLS,Ctrl,n.d. / n.d. / 2.84 / n.d. / 2.53 / n.d.,2 of 18 (2.56)
DSSQSVLYEGRNLNSVA,WASTRES,QQYHRLPLS,Ctrl,n.d. / 1.34 / n.d. / 1.93 / n.d. / n.d.,1 of 18 (1.69)
KGSQSVLYESRNKYSVA,SASTRES,QQYHREPLS,Ctrl,n.d. / n.d. / n.d. / n.d. / n.d. / n.d.,0 of 18
KVSQNVLYESTNKNSVA,DASTRES,QQYHRLPLS,Ctrl,0.24 / 0.24 / 0.14 / 0.48 / 0.19 / 0.52,2 of 18 (2.20)
KSSQSVLTESSNKNSVA,WASTRES,QQYHRLPFS,Ctrl,1.20 / 1.32 / 1.30 / 1.21 / 1.41 / 1.13,1 of 18 (2.35)
KSSQSVLYESVNKNPVA,WASTREE,QCYHRLPLS,Ctrl,n.d. / n.d. / n.d. / n.d. / n.d. / n.d.,0 of 18
CSSKSVLYESRNKNSVA,SASTRES,QQYHVLPLS,Ctrl,n.d. / 1.47 / 2.52 / 1.20 / 1.63 / 1.22,0 of 18
KLSQSVSYESRNKNSVA,WASWRES,YQYHRLPLS,Ctrl,0.98 / 1.03 / 4.01 / 2.37 / 2.21 / 1.12,1 of 18 (2.61)
KSSYSVLYESRNKNSVA,HASTREM,QQYHRLPLS,Ctrl,1.46 / 1.57 / 0.98 / 1.08 / 0.75 / 1.27,1 of 18 (1.22)
KFSQSVLMESRNKNSVA,WASTRES,QQYHRLPNS,Ctrl,2.13 / 1.41 / 0.88 / 1.69 / 2.32 / 2.54,2 of 18 (2.85)
KSSQAVPYESLNKNSVA,AASTRES,QQYHRLPLS,Ctrl,-0.09 / 0.09 / -0.12 / 0.20 / 0.13 / -0.13,1 of 18 (1.60)
KSSQSVLYESRNKNSVA,SASTRES,QQYHRHPLS,Ctrl,1.46 / 1.11 / 1.29 / 1.19 / 1.02 / 0.96,1 of 18 (2.67)
KSSQSVLYESTDKNSVA,WASTRES,QQYHREPLS,Ctrl,n.d. / n.d. / n.d. / n.d. / n.d. / n.d.,1 of 18 (2.24)
KSSQSVLYESRNKNNVA,WASERES,QQYHRLPLS,Ctrl,1.42 / 1.40 / 1.57 / 1.09 / 1.73 / 1.13,1 of 18 (2.08)
KFMQSVLYETRNKQSVA,AASTRES,QQYHRLPLS,Ctrl,0.85 / 0.46 / 0.56 / 0.42 / 0.83 / 0.65,0 of 18
KSSQSVLYESRNKNSVA,SASTPYS,QQYHRLPLS,Ctrl,1.19 / 1.57 / 1.41 / 0.73 / 0.97 / 0.79,0 of 18
KSSQSVLYESQNKNSVA,AASTRES,QQQHQLPLS,Ctrl,n.d. / n.d. / n.d. / n.d. / n.d. / n.d.,2 of 18 (3.05)
KSSQSNLYEMRNGNSVA,WASHRES,QQYHRLILS,Ctrl,n.d. / n.d. / n.d. / n.d. / n.d. / n.d.,0 of 18
KSSQSVLYESRNKNSLA,YASTRES,QQYHRLPLS,Ctrl,1.14 / n.d. / n.d. / n.d. / n.d. / n.d.,0 of 18
KSSQSVTPESNNKNSVA,WASTRES,QQYHRLPLS,Ctrl,n.d. / 2.18 / 2.12 / 4.38 / n.d. / n.d.,2 of 18 (1.90)
KLSQSVLYESNNKNSVA,WASTRCS,QQYHGLPLS,Ctrl,1.73 / 1.89 / 2.32 / 2.32 / 1.63 / 1.78,0 of 18
KSSQSVLYESTNKNSVA,AASTRES,QQYHRLPLS,Ctrl,0.29 / 0.79 / 0.21 / 0.37 / 0.56 / 0.39,0 of 18
KSSQIVLYESRNKNSVA,WASTRES,QQYHRLPLS,Ctrl,n.d. / n.d. / 2.36 / n.d. / n.d. / n.d.,2 of 18 (2.82)
KSSQSVLYTSRNKNNVA,WASTRES,QQYHALPLS,Ctrl,n.d. / n.d. / n.d. / n.d. / n.d. / n.d.,1 of 18 (1.64)
KYSQSVLYESRNKNSVA,QATTRES,QQYHRLPLS,Ctrl,0.08 / 0.24 / 0.38 / 0.13 / 0.02 / 0.13,1 of 18 (3.21)
MSSQSVLYDSRNKNSVA,WASTRES,QQYHRLELS,Ctrl,n.d. / n.d. / n.d. / n.d. / n.d. / n.d.,0 of 18
KSSQSVLYESLNKNAVA,WASTRES,QGYHRLPLW,Ctrl,n.d. / n.d. / n.d. / n.d. / n.d. / n.d.,0 of 18
KSSGSVLYESRNKNSVA,DASTRES,QQYHRLPLS,Ctrl+GP_HC,0.37 / 0.42 / 0.21 / 0.12 / 0.32 / 0.38; 0.78 / 1.31 / 0.83 / 0.72 / 0.82 / 1.34,5 of 36 (2.84)
KGSQSSLFESRNKNSVA,QASTRES,QQYHRLPLS,Ctrl,0.10 / 0.03 / -0.09 / -0.12 / -0.02 / -0.07,0 of 18
KISQSVLMESRNKNSVA,WASTRES,QQYQRLPLS,Ctrl,0.45 / 0.72 / 0.44 / 0.48 / 0.45 / 0.54,0 of 18
KSSQSVLYESRDKNSVA,WASTREV,QQYHILPLS,Ctrl,1.87 / 1.81 / 1.98 / 3.03 / 3.80 / 1.71,0 of 18
KSSQSVLYESRNKNSVA,WASTCSM,QQYHRLLLS,Ctrl,n.d. / n.d. / n.d. / n.d. / n.d. / n.d.,0 of 18
KSSYHVLYESRNKNSVA,WASTRES,QQYHRLPLS,Ctrl,n.d. / 2.12 / n.d. / n.d. / n.d. / n.d.,0 of 18
KLSQSVLEESRNKNSVA,WASTRES,QQYHRLPLS,Ctrl,0.67 / 0.34 / 0.06 / 0.13 / 0.56 / 0.68,1 of 18 (2.74)
KSSQSVRNESRNKNSVA,GASTRES,QQYHMLPLS,Ctrl,1.04 / 1.97 / 1.37 / 1.13 / 1.95 / 1.53,1 of 18 (2.19)
KSSQSVLYESRKKNSVA,WASTRES,CQYHRLPLS,Ctrl,n.d. / n.d. / n.d. / n.d. / n.d. / n.d.,0 of 18

For reference, 3 entries of the list once more:

CDR-L1,CDR-L2,CDR-L3,group,"log10 Kd, replicates",control signals
MSSQSVLYDSRNKNSVA,WASTRES,QQYHRLELS,Ctrl,n.d. / n.d. / n.d. / n.d. / n.d. / n.d.,0 of 18
KSSQSVLYESRKKNSVA,WASTRES,CQYHRLPLS,Ctrl,n.d. / n.d. / n.d. / n.d. / n.d. / n.d.,0 of 18
KFSMSGLYEQSNKNSVA,WASIRES,QQYHRLPLS,Ctrl,0.83 / 0.81 / 0.53 / 0.70 / 0.50 / 0.72,2 of 18 (2.15)

Three control strains display no target. For all light chain designs, 4% of the pairings with them gave a signal, with a median of 2.64 and one signal in twenty below 1.59, so weak values seen in few replicates may be background. The control count says in how many pairings with the empty strains this scFv gave a signal, with their mean in brackets. Values of this round are not directly comparable with the first-round values of the same sequences. The authors averaged sequences with at least three values out of six and counted those with two or fewer as poor binders. Of ten entries with the parent sequence, four were seen in most replicates (averages 0.34 to 2.37), three in one and three in none, so single entries are noisy. Some sequences occur more than once in the pool; their replicates are listed entry by entry, parted by semicolons.